# Results published in paper PMC7394479 (Journal of medicinal chemistry, 2020).
# Chains of the proteins cited; added tags and fusions are not shown. Lines headed by an entry give the natural chain unless they say otherwise; changes in a name come on top.
# UniProt P43116: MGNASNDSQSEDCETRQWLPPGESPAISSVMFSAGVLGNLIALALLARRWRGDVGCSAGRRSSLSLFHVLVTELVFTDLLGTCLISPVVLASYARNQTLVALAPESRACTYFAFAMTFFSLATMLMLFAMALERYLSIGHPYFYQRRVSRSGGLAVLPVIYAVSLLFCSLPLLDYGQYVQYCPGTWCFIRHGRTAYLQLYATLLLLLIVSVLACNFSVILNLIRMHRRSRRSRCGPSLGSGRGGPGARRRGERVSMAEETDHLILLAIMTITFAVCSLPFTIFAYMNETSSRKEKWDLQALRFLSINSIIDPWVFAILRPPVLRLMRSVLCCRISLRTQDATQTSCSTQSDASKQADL
# Legend:
# MDR1-MDCK cell line = test: Permeability across MDR1-expressed MDCK cell monolayers
# human EP2 receptor = human EP2 receptor (Homo sapiens, UniProt P43116); test: Cell-based cAMP TR-FRET assay, Schild KB against PGE2 at EP2; conditions: comparator 2a
# [1] = Mouse liver microsomal stability; conditions: for fold higher half-life in mouse liver microsomes: 24i vs 20o, 20c vs 20b, 20f vs 20e
efflux pump substrate status (MDR1-MDCK cell line),fold higher half-life in mouse liver microsomes [1] [fold],SMILES,also measured
not a substrate of efflux pumps,–,Cc1[nH]c2ccccc2c1CCNC(=O)c1ccc(-c2nnn[nH]2)cc1 [compound 3],–
–,–,"COc1cccc(-c2ccc(C(=O)NCCc3c(C)[nH]c4ccccc34)cn2)c1 [8b, 6-(3-Methoxyphenyl)-N-(2-(2-methyl-1H-indol-3-yl)ethyl)nicotinamide]",fold improved EP2 potency in comparison to 2a (human EP2 receptor): 2 fold
may be a substrate for efflux pumps,–,"COc1ccccc1-c1ncc(C(=O)NCCc2c(C)[nH]c3ccccc23)cn1 [14a, 2-(2-Methoxyphenyl)-N-(2-(2-methyl-1H-indol-3-yl)ethyl)pyrimidine-5-carboxamide]",–
–,3,"Cc1cc(C)nc(Nc2ncc(C(=O)NCC(O)c3c(C)[nH]c4ccccc34)cn2)c1 (stereo not drawn) [24i, 2-((4,6-Dimethylpyridin-2-yl)amino)-N-(2-hydroxy-2-(2-methyl-1H-indol-3-yl)ethyl)pyrimidine-5-carboxamide]","half-life at 1 μM ([1]; mouse, pooled liver microsomes): 57 min"
–,2,"Cc1[nH]c2ccccc2c1CCNC(=O)c1cnc(Nc2cc(F)ccn2)nc1 [20c, 2-((4-Fluoropyridin-2-yl)amino)-N-(2-(2-methyl-1H-indol-3-yl)ethyl)pyrimidine-5-carboxamide]",–
